The source of these data is PubChem BioAssay AID1259423 (Fisher Drug Discovery Resource Center, 2018).

The list shows a part of the results, in another mix than the full data. Activity calls are given as the source filed them. Cut-off read from the data, not from the text of the source: active = activation above about 40%; inactive = the rest, inconclusive results apart.

The test system of the assay is Aedes aegypti neuropeptide Y-like receptor 7 (NPYLR7). As to the kind of experiment: agonists of mosquito NPYLR7 receptor, primary screen, cell-based, Aedes aegypti, calcium fluorescence, mosquito biting behavior (AID 1259423).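 Note: 0% = vehicle and 100% = reference agonist at the receptor.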 The settings on record: HEK293T NPYLR7/Galpha15, GCaMP6s calcium fluorescence; at 10 µM; hits give high values.
Consider `CN(CCCl)CCCl`, for which the activation is inactive: -8.16%.
